Columns and labels:
IDO1 in Hela cells = IDO1 in Hela cells (Homo sapiens, UniProt P14902); test: IDO cytology test (LC-MS), kynurenine in IFN-gamma-stimulated Hela cells; conditions: read-out: Hela IC50, interferon gamma 100 ng/mL, 20 h, kynurenine by LC/MS
From the text: 2. IDO Cytology Test Method (LC-MS)
Content of research: the inhibitory effect of the compound on the activity of IDO1 in Hela cells was examined.
RPMI 1640 (phenol red free) medium (Invitrogen Cat. No. 11835030), fetal bovine serum (Invitrogen Cat. No. 10099141), penicillin and streptomycin (Invitrogen Gibco Cat. No. 15140-122), recombinant human interference γ (R&D system, Cat. No. 285-IF-100). 5% (w/v) trichloroacetic acid (Alfa Aesar Cat. No. A11156), DMSO (Sigma, Cat. No. D2650), 96-well plate_compound dilution plate (Axygen, Cat. No. WIPP02280), 96-well plate_test plate (Greiner, Cat. No. 655090)
The test compounds and the reference compound LW3018 were finally tested at concentrations ranging from […] to 0.76 nM, 3-fold gradient dilution, 9 concentrations, and two replicate wells.
Hela cells were plated in 96-well cell culture plates at a number of 40,000 cells per well, and incubated with RPMI 1640 containing 10% fetal bovine serum for 5-6 hours. The diluted test compound and recombinant human interferon gammaa (final concentration at 100 ng/mL) were added to activate IDO1 expression. The cells were cultured in a 37° C. cell incubator which was enriched with 5% carbon dioxide for 20 hours, and the reaction was stopped with 5% trichloroacetic acid and incubated for 30 minutes at 50° C. […]

The chains behind the UniProt entries cited, without tags or fusion partners.
UniProt P14902, whole entry: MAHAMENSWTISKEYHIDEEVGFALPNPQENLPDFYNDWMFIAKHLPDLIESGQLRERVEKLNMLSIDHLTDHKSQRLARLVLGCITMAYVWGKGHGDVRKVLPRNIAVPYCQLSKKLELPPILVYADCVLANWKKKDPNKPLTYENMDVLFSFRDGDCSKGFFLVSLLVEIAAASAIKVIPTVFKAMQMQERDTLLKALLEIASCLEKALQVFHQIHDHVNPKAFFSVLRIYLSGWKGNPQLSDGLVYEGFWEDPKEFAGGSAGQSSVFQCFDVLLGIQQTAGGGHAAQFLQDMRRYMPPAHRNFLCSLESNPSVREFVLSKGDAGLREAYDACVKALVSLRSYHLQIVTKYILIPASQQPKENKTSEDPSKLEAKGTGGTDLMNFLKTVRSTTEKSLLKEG

IDO1 = IDO1 (Homo sapiens, UniProt P14902); test: IDO1 enzyme activity test (NFK Green); conditions: read-out: IDO IC50; 10 nM IDO1, 100 uM L-tryptophan, NFK green fluorescence
Description: 1. IDO1 Enzyme Activity Test Method (NFK Green)
Content of research: the inhibitory effect of the compound on the activity of IDO1 enzyme was examined.
IDO assay kit (NTRC, Cat. No. NTRC-hTDO-1K), DMSO (Sigma, Cat. No. D2650), 384-well plate_compound dilution plate (Greiner, Cat. No. 781280), 384-well plate_test plate (Perkin Elmer, Cat. No. 6007299)
10 nM IDO1 was incubated with compound or DMSO at 23° C. for 30 minutes, and L-type tryptophan was added at a final concentration of 100 uM and reacted for 1.5 hours. NFK green was added and incubated at 37° C. for 4 hours, and fluorescence signal data (excitation band, 400/25; emission band, 510/20) was corrected with Envision. Data analysis and mapping was conducted by XLfit5 software.
The test compounds and the reference compound LW3018 were finally tested at concentrations ranging from […] to 0.51 nM, 3-fold gradient dilution, 10 concentrations, and two replicate wells.

IC50 (IDO1 in Hela cells)	IC50 (IDO1)	SMILES
6.7 nM	–	CS(=N)(=O)NCCNc1nonc1C(=NO)Nc1ccc(F)c(Br)c1 (single isomer, unassigned) [LW105-1-19]
7.6 nM	22.8 nM	CS(=N)(=O)NCCNc1nonc1C(=NO)Nc1ccc(F)c(Br)c1 (single isomer, unassigned) [LW105-1-18]
